Measurements taken from ChEMBL document CHEMBL1151944, “Activation of peroxisome proliferator-activated receptor gamma (PPARgamma) by nitroalkene fatty acids: importance of nitration position and degree of unsaturation” (J Med Chem, 2009).

Amino acid sequences for entries named in this document (tags omitted). A change or cut given only in a name is not applied to a line headed by its entry.
UniProt P37231: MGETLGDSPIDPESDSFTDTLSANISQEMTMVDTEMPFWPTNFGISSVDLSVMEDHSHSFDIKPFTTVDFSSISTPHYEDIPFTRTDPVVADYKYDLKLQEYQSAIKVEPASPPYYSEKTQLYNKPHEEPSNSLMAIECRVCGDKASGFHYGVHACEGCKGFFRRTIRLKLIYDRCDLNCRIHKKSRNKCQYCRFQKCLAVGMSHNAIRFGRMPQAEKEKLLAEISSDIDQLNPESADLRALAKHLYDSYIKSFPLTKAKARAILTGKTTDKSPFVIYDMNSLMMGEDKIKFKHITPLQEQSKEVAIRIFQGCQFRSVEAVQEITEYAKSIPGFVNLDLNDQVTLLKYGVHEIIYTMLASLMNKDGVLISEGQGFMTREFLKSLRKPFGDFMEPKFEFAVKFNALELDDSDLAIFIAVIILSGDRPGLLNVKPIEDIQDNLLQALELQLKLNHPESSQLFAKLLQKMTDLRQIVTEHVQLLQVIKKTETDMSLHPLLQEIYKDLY

Columns and labels:
[1] = molecular target: T1, Peroxisome proliferator-activated receptor gamma (Homo sapiens, UniProt P37231)
[2] = molecular target: T1, Peroxisome proliferator-activated receptor gamma; assay: Displacement of [3H2]nTZD3 from GST-tagged human recombinant PPARgamma by scintillation proximity assay
[3] = molecular target: T1, Peroxisome proliferator-activated receptor gamma; remark: listed apart in the source

`CCCCC/C=C(\C/C=C\CCCCCCCC(=O)O)[N+](=O)[O-]` was tested, and the EC50 [1] was 45 nM, the IC50 [2] was 410 nM and the EC50 [3] was 70 nM.
